{"source": "patent US8568736B2", "about": "“Polypeptide derivatives of parathyroid hormone (PTH)” (The General Hospital Corporation, priority 1999, dated 2013)", "type_in_all_cases": "cell-based", "key": {"[1]": {"target": "T1, human PTH-1 receptor (endogenous, SAOS-2 cells) (Homo sapiens, UniProt Q03431)", "T1 construct": "the human osteoblastic cell line, SAOS-2, express endogenous PTH-1 receptors; endogenous in cells; host or cells: SAOS-2 human osteoblastic cells", "T1 sequence (Q03431 27-593)": "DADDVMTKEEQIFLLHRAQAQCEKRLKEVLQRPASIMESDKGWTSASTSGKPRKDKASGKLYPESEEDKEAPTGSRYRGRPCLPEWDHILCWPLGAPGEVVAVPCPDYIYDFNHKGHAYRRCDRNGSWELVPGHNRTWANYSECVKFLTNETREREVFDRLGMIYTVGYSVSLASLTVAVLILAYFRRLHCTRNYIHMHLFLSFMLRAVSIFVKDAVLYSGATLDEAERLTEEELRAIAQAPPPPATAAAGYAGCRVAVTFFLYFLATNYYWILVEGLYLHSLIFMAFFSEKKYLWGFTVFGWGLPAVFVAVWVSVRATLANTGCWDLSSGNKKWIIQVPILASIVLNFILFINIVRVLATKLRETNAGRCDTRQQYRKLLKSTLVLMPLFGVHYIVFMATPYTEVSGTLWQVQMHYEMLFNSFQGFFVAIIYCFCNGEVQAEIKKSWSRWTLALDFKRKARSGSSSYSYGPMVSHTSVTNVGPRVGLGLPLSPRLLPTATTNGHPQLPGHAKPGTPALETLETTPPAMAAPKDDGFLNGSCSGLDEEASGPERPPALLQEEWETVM", "assay": "cAMP response in osteoblastic SAOS-2 cells", "method": "(§1) The rat osteoblastic cell line ROS 17/2.8 (Majeska, R. J., et al, Endocrinology 107:1494-1503 (1980)) expresses endogenous PTH-1 receptors at levels of 80,000 per cell and the human osteoblastic cell line, SAOS-2, express endogenous PTH-1 receptors at levels of ˜30,000 per cell.\n(§2) Stimulation of cells with peptide analogs was performed in 24-well plates. Cells were rinsed with 0.5 mL of binding buffer and treated with 200 μL of cAMP assay buffer (Dulbecco's modified Eagle's medium containing 2 mM 3-isobutyl-1-methylxanthine, 1 mg/mL bovine serum albumin, 35 mM Hepes-NaOH, pH 7.4) and 100 μL of binding buffer containing varying amounts of peptide analog (final volume=300 μL). The medium was removed after incubation for 1 h at room temperature, and the cells were frozen (−80° C.), lysed with 0.5 mL 50 mM HCl, and refrozen (−80° C.). The cAMP content of the diluted lysate was determined by radioimmunoassay. Where possible, cAMP EC50 and Maximum response values were determined using nonlinear regression (see below).\n(§3) All calculations were performed using Microsoft Excel. […] The predicted response (yp) for a given dose (x) of peptide was calculated using the following equation: yp=Min+[(Max−Min)/(1+(EC50/x)^slope)]. […] The statistical significance between two data sets was determined using a one-tailed Student's t-test, assuming unequal variances for the two sets."}, "[2]": {"target": "T2, rat PTH-1 receptor (endogenous, ROS 17/2.8 cells) (Rattus norvegicus, UniProt P25961)", "T2 construct": "The rat osteoblastic cell line ROS 17/2.8; endogenous in cells; host or cells: ROS 17/2.8 rat osteoblastic cells", "T2 sequence (P25961 27-591)": "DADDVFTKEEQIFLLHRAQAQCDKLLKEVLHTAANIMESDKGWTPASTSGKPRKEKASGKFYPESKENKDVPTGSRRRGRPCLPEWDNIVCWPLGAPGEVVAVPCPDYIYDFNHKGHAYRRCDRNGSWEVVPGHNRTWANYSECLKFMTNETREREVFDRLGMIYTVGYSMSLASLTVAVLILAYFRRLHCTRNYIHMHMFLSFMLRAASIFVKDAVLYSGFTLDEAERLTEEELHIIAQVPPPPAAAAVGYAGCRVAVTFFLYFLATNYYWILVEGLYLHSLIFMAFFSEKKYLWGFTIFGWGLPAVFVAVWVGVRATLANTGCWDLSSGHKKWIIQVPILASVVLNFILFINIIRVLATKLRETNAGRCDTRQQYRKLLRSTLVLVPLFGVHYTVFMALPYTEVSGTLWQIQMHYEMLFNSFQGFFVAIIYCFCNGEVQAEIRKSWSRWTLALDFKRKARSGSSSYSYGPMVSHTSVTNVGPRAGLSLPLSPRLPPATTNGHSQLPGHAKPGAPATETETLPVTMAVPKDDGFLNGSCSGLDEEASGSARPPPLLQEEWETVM", "assay": "cAMP response in osteoblastic ROS 17/2.8 cells", "method": "as §1, §2, §3"}, "[3]": {"target": "T3, truncated human PTH-1 receptor, hΔNt (Homo sapiens, UniProt Q03431)", "T3 construct": "expressed in transfected cells; host or cells: COS-7, transient, pcDNA-1 plasmid derived from HK-WT", "T3 sequence (Q03431 with tags, fused parts or gaps limits assumed)": "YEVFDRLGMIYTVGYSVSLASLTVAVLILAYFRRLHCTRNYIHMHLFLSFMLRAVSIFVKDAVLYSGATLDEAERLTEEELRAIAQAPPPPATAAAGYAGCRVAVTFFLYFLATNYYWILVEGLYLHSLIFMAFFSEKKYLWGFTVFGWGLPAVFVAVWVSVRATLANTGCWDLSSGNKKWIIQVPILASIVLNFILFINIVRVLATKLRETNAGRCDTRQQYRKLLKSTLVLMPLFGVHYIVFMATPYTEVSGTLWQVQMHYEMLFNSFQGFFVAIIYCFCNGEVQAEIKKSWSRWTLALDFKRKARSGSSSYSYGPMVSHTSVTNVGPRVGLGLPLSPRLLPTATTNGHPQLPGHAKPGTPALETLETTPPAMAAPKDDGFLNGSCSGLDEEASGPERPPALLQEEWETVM", "assay": "cAMP stimulation in COS-7 cells transiently transfected with truncated receptor hDeINt", "method": "(§4) COS-7 cells were transfected in 24-well plates when the cells were 85 to 95% of confluency using 200 ng of plasmid DNA that was purified by cesium chloride/ethidium bromide gradient centrifugation for each well. Assays were conducted 72 to 96 hours after transfection.\nas §2, §3"}, "WT hPTH-1 receptor": {"target": "T4, WT hPTH-1 receptor (Homo sapiens, UniProt Q03431)", "T4 construct": "encoding the intact hPTH-1 receptor (HK-WT); expressed in transfected cells; host or cells: COS-7, transient, pcDNA-1 plasmid", "T4 sequence (Q03431 27-593)": "T1 sequence (Q03431 27-593)", "assay": "cAMP stimulation in COS-7 cells transiently transfected with WT hPTH-1 receptor", "method": "as §4, §2, §3"}, "PTH-1 receptor": {"target": "T5, PTH-1 receptor (Homo sapiens, UniProt Q03431)", "T5 sequence (Q03431 27-593)": "T1 sequence (Q03431 27-593)", "assay": "cAMP stimulation in HKRK-B7 cells (LLC-PK1 stably transfected with hPTH-1 receptor)", "design": "expressed in transfected cells; host or cells: LLC-PK1 porcine kidney cells, clone HKRK-B7", "settings": "Emax constrained to ±1 SD of rPTH(1-34) response at 100 nM", "description": "Stably transfected derivatives of the porcine kidney cell line LLC-PK1, HKRK-B7 (Takasu, H., et al., J. Bone Miner. Res. 14:11-20 (1999)) and hPR2-20, express the human PTH-1 and human PTH-2 receptors respectively. The HKRK-B7 LLC-PK1 cell line expresses the hPTH-1 receptor at ˜1×10^6 receptors/cell (Takasu, H., et al., J. Bone Miner. Res. 14:11-20 (1999)), and the hPR2-22 LLC-PK1 cell line expresses the hPTH-2 receptor at ˜0.8×10^6 receptors/cell (provided by H. Takasu and F. R. Bringhurst, Endocrine Unit, Massachusetts General Hospital).\nStimulation of cells with peptide analogs was performed in 24-well plates. […] The cAMP content of the diluted lysate was determined by radioimmunoassay. Where possible, cAMP EC50 and Maximum response values were determined using nonlinear regression (see below).\nIntracellular cAMP accumulation may be measured as described by Abou-Samra et al., J. Biol. Chem. 262:1129, 1986) or other methods known to those of skill in the art. Intracellular cAMP is extracted by thawing the cells in 1 ml of 50 mM HCl and analyzed by a specific radioimmunoassay using an anti-cAMP antibody (e.g., Sigma, St. Louis, Mo.). […] The supernatant is removed and the bound radioactivity is counted in a gamma-counter (Micromedic). […]"}}}
{"compound": "CC[C@H](C)[C@H](NC(=O)[C@H](CCC(=O)O)NC(=O)[C@H](CO)NC(=O)[C@@H](NC(=O)[C@@H](N)CO)C(C)C)C(=O)N[C@@H](CCC(N)=O)C(=O)N[C@@H](CC(C)C)C(=O)N[C@@H](CCSC)C(=O)N[C@@H](Cc1c[nH]cn1)C(=O)N[C@@H](CC(N)=O)C(=O)N[C@@H](CC(C)C)C(=O)NCC(=O)N[C@@H](CCCCN)C(=O)N[C@@H](Cc1c[nH]cn1)C(=O)N[C@@H](CC(C)C)C(=O)N[C@@H](CC(N)=O)C(=O)N[C@@H](CO)C(=O)N[C@@H](CCSC)C(=O)N[C@@H](CCC(=O)O)C(=O)N[C@@H](CCCNC(=N)N)C(=O)N[C@H](C(=O)N[C@@H](CCC(=O)O)C(=O)N[C@@H](Cc1c[nH]c2ccccc12)C(=O)N[C@@H](CC(C)C)C(=O)N[C@@H](CCCNC(=N)N)C(=O)N[C@@H](CCCCN)C(=O)N[C@@H](CCCCN)C(=O)N[C@@H](CC(C)C)C(=O)N[C@@H](CCC(N)=O)C(=O)N[C@@H](CC(=O)O)C(=O)N[C@H](C(=O)N[C@@H](Cc1c[nH]cn1)C(=O)N[C@@H](CC(N)=O)C(=O)N[C@@H](Cc1ccc(O)cc1)C(N)=O)C(C)C)C(C)C", "note": "[[Y34]hPTH(1-34), [Tyr^34]human (h)PTH(1-34)NH2, reference compound]", "values": [{"measurement": "Emax", "setting": "[1]", "result": 307, "unit": "picomole/well"}, {"measurement": "EC50", "setting": "[2]", "result": 0.0003, "unit": "µM"}, {"measurement": "Emax", "setting": "[2]; ROS 17/2.8 cells", "result": "340 ± 55", "unit": "picomole/well"}, {"measurement": "EC50", "setting": "[3]; hDeINt truncated receptor, cAMP", "result": "29.1 ± 15.3", "unit": "µM"}, {"measurement": "Emax", "setting": "[3]; hDeINt, Emax constrained to peptide #7 (20 μM) response", "result": "238 ± 20", "unit": "picomole/well"}, {"measurement": "Emax", "setting": "WT hPTH-1 receptor", "result": "226 ± 30", "unit": "picomole/well"}, {"measurement": "Emax", "setting": "PTH-1 receptor", "result": 270, "unit": "picomole/well"}]}
